# Results from patent US20130237511A1, “Copper Ion Delivery Platform for Pharmaceutical Agents” (University System of Georgia, priority 2012, published 2013).
# Like-named read-outs stand apart in the source and are kept apart here.
# System: National Cancer Institute 60 cancer cell line panel
smiles,measurement,setting,value
"CC(=O)O[C@H]1C(=O)[C@@]2(C)[C@H]([C@H](OC(=O)c3ccccc3)[C@]3(O)C[C@H](OC(=O)[C@H](O)[C@@H](NC(=O)c4ccccc4)c4ccccc4)C(C)=C1C3(C)C)[C@]1(OC(C)=O)CO[C@@H]1C[C@@H]2O [Taxol, paclitaxel, reference compound]",logGI50,786-0 (Renal),−7.59 Molar
same,logGI50,A498 (Renal),−8 Molar
same,logGI50,A549/ATCC (Non-Small Cell Lung),−7.98 Molar
same,logGI50,ACHN (Renal),−6.02 Molar
same,logGI50,Average of panel,−7.588 Molar
same,logGI50,BT-549 (Breast),−7.9 Molar
same,logGI50,CAKI-1 (Renal),−6.5 Molar
same,logGI50,CCRF-CEM (Leukemia),−8 Molar
same,logGI50,COLO205 (Colon),−8 Molar
same,logGI50,DU-145 (Prostate),−8 Molar
same,logGI50,EKVX (Non-Small Cell Lung),−6.96 Molar
same,logGI50,HCC-2998 (Colon),−7.99 Molar
same,logGI50,HCT-15 (Colon),−6.54 Molar
same,logGI50,HCT-116 (Colon),−8 Molar
same,logGI50,HL-60(TB) (Leukemia),−8 Molar
same,logGI50,HOP-62 (Non-Small Cell Lung),−7.62 Molar
same,logGI50,HOP-92 (Non-Small Cell Lung),−7.82 Molar
same,logGI50,HS578T (Breast),−8 Molar
same,logGI50,HT29 (Colon),−8 Molar
same,logGI50,IGROV1 (Ovarian),−7.74 Molar
same,logGI50,K-562 (Leukemia),−7.9 Molar
same,logGI50,KM12 (Colon),−8 Molar
same,logGI50,LOXIMVI (Melanoma),−8 Molar
same,logGI50,M14 (Melanoma),−7.99 Molar
same,logGI50,MALME-3M (Melanoma),−6.34 Molar
same,logGI50,MCF7 (Breast),−8 Molar
same,logGI50,MDA-MB-231/ATCC (Breast),−8 Molar
same,logGI50,MDA-MB-435 (Melanoma),−7.89 Molar
same,logGI50,MDA-MB-468 (Breast),−8 Molar
same,logGI50,MDA-N (Breast),−8 Molar
same,logGI50,MOLT-4 (Leukemia),−7.8 Molar
same,logGI50,NCI-H23 (Non-Small Cell Lung),−7.94 Molar
same,logGI50,NCI-H226 (Non-Small Cell Lung),−6.01 Molar
same,logGI50,NCI-H322M (Non-Small Cell Lung),−8 Molar
same,logGI50,NCI-H460 (Non-Small Cell Lung),−8 Molar
same,logGI50,NCI-H522 (Non-Small Cell Lung),−8 Molar
same,logGI50,NCI/ADR-RES (Ovarian),−5.72 Molar
same,logGI50,OVCAR-3 (Ovarian),−7.85 Molar
same,logGI50,OVCAR-4 (Ovarian),−5.83 Molar
same,logGI50,OVCAR-5 (Ovarian),−7.82 Molar
same,logGI50,OVCAR-8 (Ovarian),−8 Molar
same,logGI50,PC-3 (Prostate),−8 Molar
same,logGI50,RPMI-8226 (Leukemia),−8 Molar
same,logGI50,RXF393 (Renal),−8 Molar
same,logGI50,SF-268 (CNS),−7.96 Molar
same,logGI50,SF-295 (CNS),−7.83 Molar
same,logGI50,SF-539 (CNS),−8 Molar
same,logGI50,SK-MEL-2 (Melanoma),−8 Molar
same,logGI50,SK-MEL-5 (Melanoma),−8 Molar
same,logGI50,SK-MEL-28 (Melanoma),−6.06 Molar
same,logGI50,SK-OV-3 (Ovarian),−7.95 Molar
same,logGI50,SN12C (Renal),−7.2 Molar
same,logGI50,SNB-19 (CNS),−7.94 Molar
same,logGI50,SNB-75 (CNS),−8 Molar
same,logGI50,SR (Leukemia),−7.5 Molar
same,logGI50,SW-620 (Colon),−8 Molar
same,logGI50,T-47D (Breast),−7.06 Molar
same,logGI50,TK-10 (Renal),−7.03 Molar
same,logGI50,U251 (CNS),−8 Molar
same,logGI50,UACC-62 (Melanoma),−7.87 Molar
same,logGI50,UACC-257 (Melanoma),−6.64 Molar
same,logGI50,UO-31 (Renal),−6.43 Molar
